Assay [1] has as its system chlorine-resistant Methylobacterium strain.
Assay [2] shares this test system. As to conditions: 0.3 ppm free chlorine alone; 40 seconds.
For assay [3] the test system is unchanged. As to conditions: 2 ppm free chlorine only; 40 seconds.
The subject of assay [4] is Methylobacterium reference strain. The assay can be described thus: Survival rate after exposure to electrolyzed water containing only free chlorine, reference strain. As to conditions: 1.5 ppm free chlorine, Comparative Example 2.
The test system of assay [5] is chlorine-resistant Methylobacterium strain. The assay can be described thus: Survival rate after exposure to electrolyzed water containing only free chlorine, chlorine-resistant strain. Conditions: 4 ppm free chlorine; exposed for 10 seconds; Comparative Example 2.
Assay [6] has the same test system. The source holds these as a separate data set.

Results on 1 substance are retold here after patent US20250320138A1 (priority 2022, published 2025).

Like-named read-outs stand apart in the source and are kept apart here.

free chlorine: the “bactericidal effect (common logarithm of initial bacteria number minus common logarithm of remaining bacteria number)” value came out at 0.69 in assay [1] (2.0 ppm free chlorine, bovine serum albumin 2 mg/L, Test 8); 1.64 in assay [1] (4.9 ppm free chlorine, bovine serum albumin 20 mg/L, Test 9); 0.20 in assay [1] (4.9 ppm free chlorine, bovine serum albumin 60 mg/L, Test 10). The “degree of membrane damage (red fluorescence intensity/green fluorescence intensity)” value in assay [2] amounted to 0.069. The “inner structure of cell body (electron microscope)” value in assay [3] was “an organization is packed inside the cell body similarly to the blank”. Moreover, the survival rate result is given as “less than 0.001” in assay [4] and “more than 0.1” in assay [5]. Besides, the bactericidal rate in assay [6] (0.2 ppm free chlorine, Test 7) was found to be 12.5%; in assay [6] (0.375 ppm free chlorine, Test 2 / Comparative Example 1), 10.6%; in assay [6] (0.75 ppm free chlorine, Test 3 / Comparative Example 1) it was 19.7%; in assay [6] (1.0 ppm free chlorine, Test 6), 28.3%; in assay [6] (1.5 ppm free chlorine, Test 5), 89.4%; in assay [6] (1.5 ppm free chlorine, exposure 10 to 40 seconds, Tests 1 and 4) it was 30.6%.
